Experimental data as given in publication PMC7765948, “Spadin Modulates Astrocytic Passive Conductance via Inhibition of TWIK-1/TREK-1 Heterodimeric Channels” (International Journal of Molecular Sciences, 2020).

Experiments:
[1] = system: TWIK-1/TREK-1-mediated K^+ currents in cultured astrocytes; test: Whole-cell patch clamp in cultured astrocytes transfected with scrambled, TREK-1 or TWIK-1 shRNA; assay type: cell-based, mouse (C57BL/6)
Source text: For gene silencing in cultured astrocytes and mouse brain slices, TWIK-1 shRNA and TREK-1 shRNA were constructed and the knockdown efficiencies of these shRNAs were validated as described previously. Briefly, the target region of shRNA was as follows: mouse TWIK-1: 5′-[…]-3′; mouse TREK-1: 5′-[…]-3′. These target sequences were inserted into lentiviral pSicoR vector (Addgene okasnud #11579) and Scrambled shRNA-containing pSicoR construct was used as a control. These pSicoR vectors were transfected into primary cultured astrocytes to perform electrophysiological experiments. Transfected primary astrocytes were easily detected under a fluorescence microscope since GFP fluorescent protein is expressed from these pSicoR vectors.
Primary cortical astrocytes were prepared from one day-old male and female C57BL/6 mouse pups culture astrocytes, P1 C57BL/6 J mouse pups. The cerebral cortex was dissected free of adherent meninges, minced and dissociated into single-cell suspension by trituration through a pipette. All experimental procedures described were performed in accordance with the guidelines of Korea University (Seoul, Korea). Dissociated cells were plated onto either 12 mm glass coverslips or six-well plates coated with 0.1 mg/mL Poly-D-Lysine (PDL). Cells were grown in Dulbecco’s modified Eagle’s medium (DMEM, ThermoFisher, Waltham MA, USA) supplemented with 10% heat-inactivated fetal bovine serum, 10% heat-inactivated horse serum, and penicillin–streptomycin. Cultures were maintained at 37 °C in a humidified 5% CO2 incubator. On the third day of culture, cells were washed by repeated pipetting and the media was replaced to remove debris and other floating cells. On the next day (fourth day of culture), the cells were replaced onto glass coverslips (1 × 104 per coverslip) coated with 0.1 mg/mL PDL. During this procedure, cultured astrocytes were transfected with various shRNAs or gRNAs with an optimized voltage protocol (1100 V, 20 pulse width ms, 2 pulses number) using the Neon Electroporation instrument (ThermoFisher, Waltham, MA, USA).
Cultured astrocytes were plated onto coverslips for electrophysiological experiments. The standard solution for the pipette contained (in mM): 150 KCl, 1 CaCl2, 1 MgCl2, 5 EGTA, and 10 HEPES (pH 7.2, adjusted with KOH). Standard bath solution contained (in mM): 150 NaCl, 3 KCl, 2 CaCl2, 1 MgCl2, 10 HEPES, 5.5 D-glucose, and 20 sucrose (pH 7.4, adjusted with NaOH). Patch pipettes were made from borosilicate glass capillaries (Warner Instruments, Washington, DC, USA). The pipette resistance was 5–6 MΩ. Whole-cell currents were recorded using a patch clamp amplifier (Axopatch 700B, Axon Instruments, Union City, CA, USA). Current–voltage relations were measured by applying ramped pulses (from −150 mV to +50 mV over 1000-ms) from a holding potential of −60 mV. A Digidata 1550 A interface (Axon Instruments, Union City, CA, USA) was used to convert digital–analog signals between the amplifier and computer. Data were sampled at 5 kHz and filtered at 1 kHz. Currents were analyzed with Clampfit software (Axon Instruments, Union City, CA, USA). […] Different concentrations of spadin were sequentially bath-applied from low concentration to high concentration by switching solenoid valves using a gravity-fed perfusion system (VC-6M, Harvard Apparatus, Holliston, MA, USA). Whole-cell currents were recorded after 2 min when spadin-contained bath solutions were exchanged. All experiments were conducted at room temperature of 20–22 °C.
All data are presented as means ± standard error of the mean (s.e.m). The significance of data for comparison was assessed by Student’s t-test (paired t-test) or one-way ANOVA followed by Turkey’s post hoc test, and significance levels are given as: n.s: not significant, * p < 0.05, ** p < 0.01, *** p < 0.001, and **** p < 0.0001. […]

TREK-1 = conditions: cited from earlier work
Source text: It is well known that TREK-1 activity is modulated by multiple signals such as mechanostretching, heat, pH changes, polyunsaturated fatty acids, and Gq or Gs-induced phosphorylation. […] Recently, spadin, a ...

[2] = TREK-1 shRNA astrocytes, 10 µM spadin

CC[C@H](C)[C@H](NC(=O)[C@@H]1CCCN1C(=O)CNC(=O)[C@H](CO)NC(=O)[C@H](Cc1c[nH]c2ccccc12)NC(=O)[C@H](CCCNC(=N)N)NC(=O)[C@@H]1CCCN1C(=O)[C@H](CC(C)C)NC(=O)[C@@H]1CCCN1C(=O)[C@H](C)NC(=O)[C@@H](N)Cc1ccc(O)cc1)C(=O)NCC(=O)N[C@H](C(=O)N[C@@H](CO)C(=O)N[C@@H](Cc1c[nH]c2ccccc12)C(=O)NCC(=O)N[C@@H](CC(C)C)C(=O)N[C@@H](CCCNC(=N)N)C(=O)O)C(C)C [spadin]
K^+ conductance with spadin ([1]; Sc shRNA control astrocytes (TREK-1 shRNA experiment), 10 µM spadin): dramatically reduced currents in control cells | K^+ conductance with spadin ([1]; Sc shRNA control astrocytes (TWIK-1 shRNA experiment)): drastically reduced | K^+ conductance with spadin [1, 2]: did not affect K^+ conductance | spadin-sensitive K^+ conductance [1, 2]: almost negligible | K^+ conductance with spadin ([1]; TWIK-1 shRNA astrocytes): did not affect K^+ conductance | spadin-sensitive K^+ conductance ([1]; TWIK-1 shRNA astrocytes): almost disappeared | further current reduction by spadin ([1]; double KD of TREK-1 and TWIK-1): did not cause any further current reduction | spadin-sensitive K^+ conductance ([1]; double KD of TREK-1 and TWIK-1): mostly disappeared | inhibition of TREK-1 current (TREK-1; 100 nM spadin, TREK-1-transfected COS-7 cells, current stimulated by arachidonic acid): about 60% | IC50 (TREK-1; dose-response of spadin on TREK-1): 0.0707 µM
